Our source for the inhibition values is PubChem BioAssay AID504634 (The Scripps Research Institute Molecular Screening Center, 2011).

Sequences of proteins named here, by UniProt entry; tags and fusion partners are left off.
UniProt P47898, whole entry: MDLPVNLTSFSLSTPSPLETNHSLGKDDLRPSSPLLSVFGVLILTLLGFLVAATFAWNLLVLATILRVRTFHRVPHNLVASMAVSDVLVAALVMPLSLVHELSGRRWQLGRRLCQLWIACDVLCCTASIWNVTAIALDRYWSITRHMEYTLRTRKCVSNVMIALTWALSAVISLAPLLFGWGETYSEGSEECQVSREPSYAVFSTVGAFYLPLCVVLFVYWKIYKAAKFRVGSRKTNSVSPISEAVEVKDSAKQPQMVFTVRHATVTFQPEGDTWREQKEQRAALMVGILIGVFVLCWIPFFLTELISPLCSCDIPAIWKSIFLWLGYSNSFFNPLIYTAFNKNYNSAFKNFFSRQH

This is a selection; strong and weak results do not stand in their true shares. Active and inactive are the calls of the source. Rule as the data show it: active = inhibition mostly above about 23% (no sharp cut-off); inactive = mostly below about 18%.

In the experiment the target is 5-hydroxytryptamine receptor 5A (Homo sapiens) (UniProt P47898). As to the kind of experiment: HTR5A inverse agonists in luminescence cell assay, primary screen, counter-screen for OPRM1-OPRD1 heterodimer inverse agonist project, full-deck HTS (AID 504634).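 Also: 0% = cells with DMSO and 100% = no-cell wells with DMSO.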 As to conditions: HTR5A cell line, inverse agonism, at 9.3 µM, active compounds read high. On the technique in general: The purpose of a counterscreen is to sort out artefacts and off-target activity.
The inhibition is the relative decrease from the control value, in per cent. Take `CP(=O)(Oc1ccccc1)OC(c1ccccc1)C(F)(F)F` (configuration not stated): the inhibition was inactive: -11%. Turning to `C=CCC1(Nc2ccccc2)CC(C)N(C)CC1C` (configuration not stated), the inhibition was inactive: -3.19%. As for `COc1ccccc1OP(C)(=O)Nc1ccccc1` (configuration not stated), the inhibition is inactive: -3.66%.

In the case of `CP(=O)(Nc1ccccc1Br)Oc1ccccc1` (configuration not stated), the inhibition is inactive: 7.21%.

Regarding `CP(=S)(Nn1cnnc1)Oc1ccccc1` (configuration not stated), the inhibition was inactive: 11.2%. `CCCCOc1ccc(C(=O)NCC2(N3CCCCC3)CCCCC2)cc1OC`: the inhibition was inactive: 6.08%.

As for `O=C(C1CCN(S(=O)(=O)c2cccc3cccnc23)CC1)N1CCn2c1nc1ccccc12`, the inhibition was active: 84%. For `COc1ccccc1OP(C)(=O)Nc1cc(Cl)ccc1C` (configuration not stated) the value was inactive: 5.45%; for `COc1ccc(OP(C)(=O)Nc2cccc(F)c2)cc1` (configuration not stated), inactive: -0.63%; for `Cc1cc(C)cc(OP(C)(N)=O)c1` (configuration not stated), inactive: 4.03%. For `CCOC(=O)c1ccc(NP(C)(=O)Oc2ccccc2)cc1` (configuration not stated) the value was inactive: -5.71%; for `Cc1ccc(NP(C)(=O)Oc2ccccc2)c(C)c1` (configuration not stated), inactive: -19.1%. For `CC(C)(C)c1ccc(OP(C)(=O)Nc2ccc(SC(F)(F)F)cc2)cc1` (configuration not stated), the inhibition is inactive: -0.8%.

Turning to `Cc1cccc(C)c1OP(C)(N)=O` (configuration not stated), the inhibition was inactive: 0.47%.

`O=[N+]([O-])c1ccc2c(c1)C=Nc1ccccc1O2`: the inhibition was inactive: -0.83%.

Regarding `O=[N+]([O-])c1cc([N+](=O)[O-])c(Nc2cccnc2)c([N+](=O)[O-])c1`, the inhibition is inactive: 38.8%. `Cc1n[nH]c(C)c1S(=O)(=O)N1CCC(C(=O)N2CCn3c2nc2ccccc23)CC1`: the inhibition was active: 41.4%. Regarding `COc1cc(C(=O)NCC2(N3CCOCC3)CCCCC2)ccc1OCC(C)C`, the inhibition is inactive: 8.6%. Regarding `CCN(CC)CCn1c(NCc2ccc(OC)cc2)nc2ccccc21`, the inhibition is inactive: -22.7%.

On to `Cc1ccc(S(=O)(=O)NCCC(=O)N2CCN(C/C=C/c3ccccc3)CC2)cc1`, for which the inhibition was inactive: -21.5%.

As to `CCN(CC)CCCOC(=O)C(O)(c1ccccc1)c1ccccc1`, the inhibition is inactive: -13.1%. `Cc1cc(C)cc(OP(C)(=O)Nc2ccccn2)c1` (configuration not stated): the inhibition is inactive: -16%. To `CP(=O)(Nc1cccc(Br)c1)Oc1ccccc1` (configuration not stated) belongs inactive: -20.7%; to `Cc1ccc(C)c(NP(C)(=O)Oc2ccccc2)c1` (configuration not stated), inactive: 33%. As to `Cc1cc(C)cc(OP(C)(=O)Nc2ccc(C)cc2C)c1` (configuration not stated), the inhibition was inactive: 11%. With `CCOC(=O)c1ccc(NP(C)(=O)Oc2cc(C)cc(C)c2)cc1` (configuration not stated), the inhibition is inactive: 15.6%. With `COc1cc(C(=O)NCC2(N3CCOCC3)CCCCC2)cc(Cl)c1OC(C)C`, the inhibition is inactive: 2.15%. `COc1ccccc1OP(C)(=O)Nc1cccc(Br)c1` (configuration not stated): the inhibition is inactive: -4.46%. As to `CC1=NCCc2c1[nH]c1ccccc21.O=[N+]([O-])c1cc([N+](=O)[O-])c(O)c([N+](=O)[O-])c1`, the inhibition was inactive: 9.28%. Consider `O=C(C1CCN(S(=O)(=O)c2cnc[nH]2)CC1)N1CCn2c1nc1ccccc12`, for which the inhibition is active: 41.4%.

With `O=C(O)c1cccc(Nc2c([N+](=O)[O-])cc([N+](=O)[O-])cc2[N+](=O)[O-])c1`, the inhibition was inactive: 22.8%. For the molecule `CCCOc1ccc(NP(C)(=O)Oc2ccc(Cl)cc2)cc1` (configuration not stated), the inhibition is inactive: 28.1%. For `CP(=O)(Nc1ccc(SC(F)(F)F)cc1)Oc1ccccc1` (configuration not stated) the value was inactive: -10.5%; for `CN1CCCCC1COC(=O)C1(O)c2ccccc2CCc2ccccc21` (configuration not stated), inactive: -5.69%. To `COc1ccccc1OP(C)(=O)Nc1c(C)cccc1C` (configuration not stated) belongs inactive: 7.5%; to `CC1=C2N=C(C=C3N=C(C(C)=C4[N-][C@@](C)([C@@H]5N=C1[C@](C)(CCC(=O)NC[C@@H](C)OP(=O)([O-])O[C@H]1[C@@H](O)[C@@H](n6cnc7cc(C)c(C)cc76)O[C@@H]1CO)[C@H]5CC(N)=O)[C@@](C)(CC(N)=O)[C@@H]4CCC(N)=O)[C@@](C)(CC(N)=O)[C@@H]3CCC(N)=O)C(C)(C)[C@@H]2CCC(N)=O.[C-]#N.[Co+3]`, inactive: 21.6%. Turning to `CN(C)C1(CNC(=O)c2ccc(S(C)(=O)=O)cc2)CCCCC1`, the inhibition was inactive: 42.2%. To `O=[N+]([O-])c1cc([N+](=O)[O-])c(Nc2nnnn2CCO)c([N+](=O)[O-])c1` belongs inactive: 20.4%; to `CCOC(=O)C(CC)C1=NC(C)(C)Cc2ccccc21.O=[N+]([O-])c1cc([N+](=O)[O-])c(O)c([N+](=O)[O-])c1` (configuration not stated), inactive: 9.07%. On to `Cc1nc2ccc3ccccc3c2s1.O=[N+]([O-])c1cc([N+](=O)[O-])c(O)c([N+](=O)[O-])c1`, for which the inhibition is inactive: 9.5%.

With `O=[N+]([O-])c1cc([N+](=O)[O-])c(-c2cnn(-c3ccccc3)c2)c([N+](=O)[O-])c1`, the inhibition is inactive: -1.11%.

Take `O=[N+]([O-])c1cc([N+](=O)[O-])c(-n2nnc3ccccc32)c([N+](=O)[O-])c1`: the inhibition was inactive: 0.18%.
